Lamin A splicing – changes lamin A minigene splicing in HeLa cells | HeLa LMNA splicing GFP/RFP minigene ratio, 48 h | Potency, µM (top dose mostly 46.1 µM), usual class: inhibitors | 200,000 compounds, 0.01% hits | AID 1487; active = well fitted inhibition curve with a large enough effect in the signal ratio, with a control signal flat, not every such curve was filed as active; inconclusive = small, poorly fitted or top-dose-only effect, or effect the other way, or a change in a side signal; the % refers to the signal ratio
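Read-out is the ratio of GFP to DsRed2 object intensity, acquired by 488 nm laser-scanning cytometry on HeLa lamin A-EGFP minigene reporter cells. Compound incubation 48 hrs at 37 °C in Opti-MEM with 2% FBS; DMSO 0.5% final.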
G9a block – G9a (human) methyltransferase inhibition; G9a H3K9 monomethylation, AlphaScreen, 2 h; Potency, µM (highest dose often 102 µM), hits mostly inhibitors; 350,000 compounds, 8.8% hits; AID 504332; also: nearly all actives have a fitted effect of over 75% in size
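AlphaScreen detection with an anti-monomethyl H3K9 antibody quantified product after a 2 h room-temperature reaction containing 500 nM biotinylated H3K9 peptide, 20 µM SAM and 20 nM enzyme, which had been preincubated 15 min with compound.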
JMJD2E inh – inhibitors of human JMJD2E histone demethylase. 230,000 compounds, 1.6% hits. JMJD2E catalytic domain, FDH-coupled NADH fluorescence (FDH is formaldehyde dehydrogenase). AID 2147. B2RXH2. Potency, µM (series often up to 57.1 µM), usual class: inhibitors; active = well fitted inhibition curve with a large enough effect, not every such curve was filed as active; inconclusive = small, poorly fitted or top-dose-only effect, or another doubt; inactive = no such curve, though single readings can be large or run the other way; also: nearly all actives have a fitted effect of over 50% in size
ALDH1A1 block – blocks purified human ALDH1A1 activity; P00352; Purified ALDH1A1, NADH fluorescence, propionaldehyde substrate; Potency, µM (highest dose often 75.3 µM), hits mostly inhibitors; 220,000 compounds, 7.3% hits; AID 1030; active = well fitted inhibition curve with a large enough effect, not every such curve was filed as active; inconclusive = small, poorly fitted or top-dose-only effect, or another doubt; inactive = no such curve, though single readings can be large or run the other way
miR-21 reporter – miR-21 reporter, rising signal; HeLa miR-21 FLuc reporter, luciferase, 48 h; Potency, µM (doses to about 38.3 µM); 340,000 tested, under 10 active; AID 2288; active = well fitted rising curve with a large enough effect; inconclusive = small, poorly fitted or top-dose-only effect; inactive = no such curve, though single readings can be large or run the other way;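 further: miR-21 action dims this reporter so a rising signal means less miR-21 action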
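Luminescence from a firefly luciferase reporter carrying a miR-21 binding site downstream, stably expressed under a CMV promoter in HeLa cells that make miR-21 endogenously, reports miRNA modulation after 48 h compound exposure up to approximately 40uM final.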
Sfp PPTase inh – Sfp phosphopantetheinyl transferase inhibition; 310,000 compounds, 3.5% hits; Biochemical Sfp PPTase activity, qHTS; Potency, µM, actives largely listed as inhibitors; Q9F4F7;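 also: the enzyme is Sfp with the accession as filed and its product quenches rhodamine fluorescence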
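Fluorescence-quenching assay with 15 nM Sfp, 5 uM rhodamine-CoA and 12.5 uM BHQ-2-labelled ybbR peptide in pH 7.6 Hepes/MgCl2 buffer. Enzyme was pre-incubated with compound for 15 min at room temperature. Rate was taken from the 30-min fluorescence change (525/598 nm).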
A number is an active result; - = inactive; ? = inconclusive; . = no result; [ ] = another dose, or the depositor's remark. Only some compounds are listed: those with a hit (about 13% of all), similar ones and a draw of the others. Unless noted, calls follow the shape of the dose curve; as a rule, active = well fitted curve in the direction sought with a large enough effect; inconclusive = small, poorly fitted or top-dose-only effect, or another doubt; inactive = no such curve, though single readings can be large; an effect the other way counts as inactive or inconclusive.

SMILES | Lamin A splicing | G9a block | JMJD2E inh | ALDH1A1 block | miR-21 reporter | Sfp PPTase inh
C=CCSC1=C(C#N)C(c2ccccc2Cl)CC(=O)N1 (stereo unspecified) | - | 20µM | - | 25µM | - | 35µM
CCCCCCSC1=C(C#N)C(c2ccccc2)CC(=O)N1 (stereo unspecified) | - | -[12.7 µM] | - | ? | - | -
C=CCSC1=C(C#N)C(c2ccccc2C)CC(=O)N1 (stereo unspecified) | - | -[12.7 µM] | - | ? | - | ?
O=C(NC(CC(=O)N1CCCC(C(F)(F)F)C1)c1ccccc1)c1ccccc1Cl (stereo unspecified) | . | - | . | . | - | -
Cc1nc2ccc(NC(=O)CCC3CCCC3)cc2s1 | . | - | . | . | - | -
Cc1cc(C)cc(OCC(=O)NCC2(N(C)C)CCCCC2)c1 | ? | - | . | . | - | .
CCCn1c(SCC(=O)NCc2ccc(F)cc2)n[nH]c1=O | . | - | - | - | - | -
CCCn1c(SCC(=O)NC(=O)NCc2ccco2)n[nH]c1=O | - | ? | - | - | - | 22µM
Cc1sc2nc(C3CC3)nc(SCC(=O)NCc3ccco3)c2c1C | ? | 50µM | - | ? | - | ?
Cc1sc2nc(SCC(=O)NCc3ccco3)n(C)c(=O)c2c1C | ? | - | - | - | - | -
CCn1c(SCC(=O)NC(=O)NCc2ccco2)nc2sc(C)c(C)c2c1=O | ? | ? | - | 8.9µM | - | 25µM
CCCc1cnc2c(c1SCC(=O)NCc1ccc(C)cc1)c(=O)n(C)c(=O)n2C | - | 10µM | . | . | - | .
CCn1c(SCC(=O)NC2CCCCC2)nc2ccccc2c1=O | . | - | . | . | - | -
COc1ccc(NC(=O)Nc2cccc(OCc3cc(=O)n4cccc(C)c4n3)c2)c(OC)c1 | ? | ? | . | . | - | .
CCCc1nc(SCC(=O)NCc2ccco2)c2c(=O)n(C)c(=O)n(C)c2n1 | - | 45µM | - | - | - | -
O=C(Nc1ccc(CN2CCOCC2)cc1)c1ccc(N2CCCC2)c([N+](=O)[O-])c1 | - | ? | - | 11µM | - | -
O=C(Nc1nc(-c2ccccc2)cs1)c1ccc(N2CCOCC2)c([N+](=O)[O-])c1 | ? | ? | - | - | ? | -
O=C(Nc1nc2ccccc2s1)c1ccc(N2CCCCC2)c([N+](=O)[O-])c1 | ? | ? | - | 11µM | - | -
O=C(Nc1ccon1)c1ccc(N2CCCCC2)c([N+](=O)[O-])c1 | . | - | - | 13µM | - | -
CCOc1ccc(-c2nnc(SCC(=O)NCCc3ccccc3)nc2-c2ccc(OCC)c(OC)c2)cc1OC | - | ? | . | . | - | .
CCOc1ccc(C(=O)Nc2cccc(-c3nc4cccnc4s3)c2C)cc1OCC | . | ? | . | . | - | .
COc1ccc(S(=O)(=O)Nc2cccc(-c3ccc(N4CCC(C)CC4)nn3)c2)c(OC)c1 | - | - | . | . | - | .
CCc1ccc(C(C(=O)NCc2ccc(OC)cc2)N(CCOC)C(=O)Cc2cccs2)cc1 (stereo unspecified) | - | - | - | 1.3µM | - | -
COc1ccc(CNC(=O)C(c2ccc(C)o2)N(Cc2cccs2)C(=O)Cc2cccs2)cc1 (stereo unspecified) | ? | - | - | 3.5µM | -[7.66 µM] | -
COCCN(C(=O)Cc1cccs1)C(C(=O)NCc1ccc(OC)cc1)c1ccc(C)cc1 (stereo unspecified) | - | ? | - | 2µM | - | -
SMILES | Lamin A splicing | G9a block | JMJD2E inh | ALDH1A1 block | miR-21 reporter | Sfp PPTase inh
N#Cc1ccc(CN2CC[C@@]3(CCCN(S(=O)(=O)c4ccccc4)C3)C2)cc1 | . | -[12.7 µM] | . | - | . | -
COC(=O)C1=C(C(=O)OC)[C@@H]2Nc3ccccc3[C@@]23C[C@@H](C(=O)OC)N(C(=O)c2cccs2)C3=N1 | -[9.22 µM] | . | -[11.4 µM] | -[13.5 µM] | . | -
COc1ccc(N2CCN(C(=O)C3Cc4ccccc4N3C(C)=O)CC2)cc1 (stereo unspecified) | - | - | . | . | - | .
CC(=O)Nc1sc(/C(C#N)=C/c2ccc(Cl)c(Cl)c2)nc1-c1ccc(C)cc1 | ? | - | - | - | - | 16µM
Cc1nn(-c2ccccc2)c(Cl)c1C(=O)OCC(=O)NCCc1ccccc1 | . | -[0.501 µM] | . | . | - | -
Cc1cccc(/C(N)=N/OC(=O)c2cccc3ccccc23)c1 | . | - | . | . | - | -
CN1C(=O)/C(=N\OC(=O)c2cccc3ccccc23)c2ccccc21 | ? | ? | - | 14µM | - | -
O=C1N/C(=N/Nc2ccccc2)S/C1=C\c1ccccc1 | - | 7.9µM | - | 5.6µM | - | 25µM
O=C1NC(=Nc2ccccc2)S/C1=C\c1ccccc1 | . | -[0.501 µM] | . | . | - | -
CC(C(=O)Nc1ncc([N+](=O)[O-])s1)N1C(=O)c2ccccc2S1(=O)=O (stereo unspecified) | . | 11µM | . | . | . | .
COc1ccccc1C(CNC(=O)c1ccc(C)c(S(=O)(=O)N2CCCCC2)c1)N1CCCC1 (stereo unspecified) | . | -[0.501 µM] | . | . | . | .
O=C(NCCCN1CCOCC1)c1ccc(-n2c(=O)c(=O)[nH]c3ccccc32)cc1 | . | . | . | - | . | .
CCCCN=c1scc(-c2ccc3c(c2)NC(=O)CO3)n1N=C1CCCC1 | ? | 8.9µM | - | 3.2µM | - | -
CCN=c1scc(-c2ccc3c(c2)NC(=O)CO3)n1N=C1CCCC1 | ? | ? | - | ? | ? | ?
COc1ccc(Br)cc1Cn1nnc(C(=O)Nc2ccc(C)cc2C)c1N | . | - | . | . | - | .
Clc1cccc(CN2CCN(c3ncccn3)CC2)c1Cl | . | . | . | . | - | -
Fc1cccc(CN2CCN(c3ncccn3)CC2)c1 | - | ? | - | 13µM | - | 45µM
c1ccc(-c2ccc(CN3CCN(c4ncccn4)CC3)cc2)cc1 | ? | 2.8µM | - | ? | - | ?
Clc1ccc(CN2CCN(c3ncccn3)CC2)cc1Cl | . | . | . | . | - | -
Clc1ccccc1CN1CCN(c2ncccn2)CC1 | . | 32µM | . | . | - | -
Fc1ccc(CN2CCN(c3ncccn3)CC2)c(F)c1 | . | . | . | . | - | ?
c1ccc(N(c2ccccc2)c2nc(N3CCCC3)nc(-n3ccnc3)n2)cc1 | ? | ? | - | - | - | 45µM
Cc1cc(C(=O)N2CCN(c3cccc(Cl)c3)CC2)c2c(C)nn(-c3ccccc3Cl)c2n1 | . | - | . | . | - | .
O=C(O)CCCc1ccc2ccc3ccccc3c2c1 | . | . | . | -[13.5 µM] | . | .
CCCCNC(=O)C1CCN(S(=O)(=O)N2CCCCCC2)CC1 | - | - | - | - | - | -
SMILES | Lamin A splicing | G9a block | JMJD2E inh | ALDH1A1 block | miR-21 reporter | Sfp PPTase inh
COc1ccc(CN2CCN(c3ccccn3)CC2)c(OC)c1 | - | ? | - | - | - | -
CC(CCN1CCN(c2ccccn2)CC1)c1ccccc1 (stereo unspecified) | . | 28µM | . | . | - | -
Clc1ccc(CN2CCN(c3ncccn3)CC2)cc1 | . | . | . | . | - | -
c1ccc(COc2ccc(CN3CCN(c4ccccn4)CC3)cc2)cc1 | - | 56µM | - | - | - | ?
Cc1ccc(CN2CCc3nc(N4CCN(c5ncccn5)CC4)ncc3C2)cc1 | - | 20µM | . | . | - | .
c1ccc(CN2CCN(c3ncccn3)CC2)cc1 | . | 25µM | . | . | - | -

Source: PubChem BioAssay (National Center for Advancing Translational Sciences (NCATS))
